Publication PMC7614367, “Itraconazole inhibits endothelial cell migration by disrupting inositol pyrophosphate-dependent focal adhesion dynamics and cytoskeletal remodeling” (Biomedicine & Pharmacotherapy, 2023)

The chains behind the UniProt entries cited, without tags or fusion partners. Residues count along the entry.
UniProt Q05397, 2-1052: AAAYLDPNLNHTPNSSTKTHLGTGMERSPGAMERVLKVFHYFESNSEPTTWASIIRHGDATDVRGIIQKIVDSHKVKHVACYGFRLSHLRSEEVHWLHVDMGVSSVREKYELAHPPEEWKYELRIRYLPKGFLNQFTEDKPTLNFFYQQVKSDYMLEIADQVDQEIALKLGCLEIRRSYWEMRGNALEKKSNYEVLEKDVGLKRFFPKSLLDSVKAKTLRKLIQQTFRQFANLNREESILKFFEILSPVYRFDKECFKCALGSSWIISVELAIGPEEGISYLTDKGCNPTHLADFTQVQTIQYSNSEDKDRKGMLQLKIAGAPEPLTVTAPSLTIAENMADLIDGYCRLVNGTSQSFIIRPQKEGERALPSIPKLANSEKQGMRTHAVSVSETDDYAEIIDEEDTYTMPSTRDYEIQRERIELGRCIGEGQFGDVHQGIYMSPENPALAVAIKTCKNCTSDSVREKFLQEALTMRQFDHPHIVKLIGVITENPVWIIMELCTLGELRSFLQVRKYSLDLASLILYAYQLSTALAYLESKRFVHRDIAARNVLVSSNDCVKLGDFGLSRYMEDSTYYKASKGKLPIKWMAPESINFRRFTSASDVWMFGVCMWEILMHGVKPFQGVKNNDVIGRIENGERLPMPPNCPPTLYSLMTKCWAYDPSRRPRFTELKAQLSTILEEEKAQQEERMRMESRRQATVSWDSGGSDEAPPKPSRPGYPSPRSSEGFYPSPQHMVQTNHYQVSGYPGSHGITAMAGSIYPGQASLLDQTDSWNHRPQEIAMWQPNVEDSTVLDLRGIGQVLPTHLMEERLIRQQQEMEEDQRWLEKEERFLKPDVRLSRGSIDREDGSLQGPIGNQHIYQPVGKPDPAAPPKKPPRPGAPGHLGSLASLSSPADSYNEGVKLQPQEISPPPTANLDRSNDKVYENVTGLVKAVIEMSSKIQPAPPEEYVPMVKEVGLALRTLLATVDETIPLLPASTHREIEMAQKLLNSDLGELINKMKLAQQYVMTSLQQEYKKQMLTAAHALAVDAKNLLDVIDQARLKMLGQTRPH

Molecular target: T1, FAK (GST-FAK, flag-FAK) (Homo sapiens, UniProt Q05397)
T1 construct: gene PTK2; full-length FAK, GST- or flag-tagged, produced in HEK293 cells; tags kept; endogenous HUVEC protein also pulled down
Experiment: bead pull-down of GST-FAK by flag-FAK, western blot
Type: binding
Details: enhancer of FAK dimerization; FERM domain; compared with InsP6; 4 °C overnight

SMILES: O=P(O)(O)O[C@H]1[C@@H](OP(=O)(O)O)[C@H](OP(=O)(O)O)[C@@H](OP(=O)(O)OP(=O)(O)O)[C@H](OP(=O)(O)O)[C@H]1OP(=O)(O)O [5-InsP7, 5-diphosphoinositol 1,2,3,4,6-pentakisphosphate]
- binding between flag-FAK and GST-FAK: 5-InsP7, but not its nonhydrolyzable analogs 5-PCP and CF2, enhances the formation of FAK dimer
